Activity data for 2 molecules are collected here from ChEMBL document CHEMBL5543100 (Eur J Med Chem, 2024).

The nature of data set [1]: Toxicity in male immunodeficient BALB/c nude mouse xenografted with human OS-RC-2 cells assessed as histopathological changes in liver at 20 mg/kg/day, ip administered for 16 days by H and E staining based analysis. Type of data set: organism-based. Particulars: in vivo, 384 h, time 16 day. A general note: In xenograft studies the graft and the host belong to different species.

Data set [2] is described as follows: Toxicity in male immunodeficient BALB/c nude mouse xenografted with human OS-RC-2 cells assessed as histopathological changes in lung at 20 mg/kg/day, ip administered for 16 days by H and E staining based analysis. The class given is organism-based. Particulars: in vivo, 384 h, time 16 day.
A short description of data set [3]: Toxicity in male immunodeficient BALB/c nude mouse xenografted with human OS-RC-2 cells assessed as histopathological changes in spleen at 20 mg/kg/day, ip administered for 16 days by H and E staining based analysis. Type of data set: organism-based. The conditions noted are these: in vivo, 384 h, time 16 day.
The nature of data set [4]: Toxicity in male immunodeficient BALB/c nude mouse xenografted with human OS-RC-2 cells assessed as histopathological changes in kidney at 20 mg/kg/day, ip administered for 16 days by H and E staining based analysis. The class given is organism-based. Particulars: in vivo, 384 h, time 16 day.
Data set [5] in a line: Toxicity in male immunodeficient BALB/c nude mouse xenografted with human OS-RC-2 cells assessed as histopathological changes in heart at 20 mg/kg/day, ip administered for 16 days by H and E staining based analysis. The class given is organism-based. Particulars: in vivo, 384 h, time 16 day.
Data set [6] concerns OS-RC-2. Kind of data set: Antitumor activity against human OS-RC-2 cells xenografted in male immunodeficient BALB/c nude mouse assessed as tumor volume at 20 mg/kg/day, ip administered for 16 days and measured every other day (reference value: 741 +/- 294.89 mm3). Particulars: time 16 day. The class given is functional.
In data set [7] the test system is OS-RC-2. Kind of data set: Antiproliferative activity against human OS-RC-2 cells cultured in glucose-deficient medium assessed as reduction in cell viability at 9 uM measured after 24 hrs. The class given is functional, cell-based.

Activity calls are given as the source filed them. No cut-off for these calls is given here.

In the case of `CCCNc1ccc2ncc(-c3ccc4[nH]ncc4c3)n2n1`, the Activity result in data set [1] was “Non-Toxic”; in data set [2], “Non-Toxic”; in data set [3], “Non-Toxic”; in data set [4], “Non-Toxic”; in data set [5] it was “Non-Toxic”; in the data set with OS-RC-2 [6], 280.89 mm3.
`CNC(=O)c1cc(Oc2ccc(NC(=O)Nc3ccc(Cl)c(C(F)(F)F)c3)cc2)ccn1` [SORAFENIB]: in the data set on OS-RC-2 [7], the result was Active.
